Experimental data from patent publication US8569267B2, “Tetracyclic tetrahydrofuran derivatives containing cyclic amine side chain” (Janssen Pharmaceutica, NV, priority 2005, dated 2013).
Where two headings read alike, the source gives them in different places.

By UniProt entry, the sequences of proteins in these tests, tags left out. Where a name states a change or a piece, a line headed by the entry shows the natural chain unless it says otherwise. Residues count along the entry.
UniProt P28223, whole entry: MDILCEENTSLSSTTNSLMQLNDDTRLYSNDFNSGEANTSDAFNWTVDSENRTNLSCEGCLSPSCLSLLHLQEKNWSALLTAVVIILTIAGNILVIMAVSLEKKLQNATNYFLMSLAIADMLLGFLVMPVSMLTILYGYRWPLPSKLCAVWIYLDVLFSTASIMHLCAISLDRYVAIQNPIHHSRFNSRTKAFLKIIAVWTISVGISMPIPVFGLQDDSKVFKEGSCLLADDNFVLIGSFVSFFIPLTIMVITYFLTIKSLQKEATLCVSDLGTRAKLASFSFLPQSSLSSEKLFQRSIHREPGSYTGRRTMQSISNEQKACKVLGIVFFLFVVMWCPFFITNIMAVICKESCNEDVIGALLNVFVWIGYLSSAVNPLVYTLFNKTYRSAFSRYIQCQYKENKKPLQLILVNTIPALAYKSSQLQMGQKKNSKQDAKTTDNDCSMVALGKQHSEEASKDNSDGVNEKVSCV
UniProt P14416, whole entry: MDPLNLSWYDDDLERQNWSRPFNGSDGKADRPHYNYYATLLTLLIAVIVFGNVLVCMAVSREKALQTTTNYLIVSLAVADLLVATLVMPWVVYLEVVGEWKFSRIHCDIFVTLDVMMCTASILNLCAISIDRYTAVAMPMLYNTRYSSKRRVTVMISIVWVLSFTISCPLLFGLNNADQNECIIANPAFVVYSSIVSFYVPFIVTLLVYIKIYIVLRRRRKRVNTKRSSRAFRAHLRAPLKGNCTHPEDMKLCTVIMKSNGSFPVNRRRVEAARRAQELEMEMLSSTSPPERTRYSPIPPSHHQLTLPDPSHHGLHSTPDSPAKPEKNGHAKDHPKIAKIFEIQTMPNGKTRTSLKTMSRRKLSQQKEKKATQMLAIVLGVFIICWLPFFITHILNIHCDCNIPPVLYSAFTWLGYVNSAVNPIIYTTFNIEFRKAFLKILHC
UniProt Q63380, 1-617: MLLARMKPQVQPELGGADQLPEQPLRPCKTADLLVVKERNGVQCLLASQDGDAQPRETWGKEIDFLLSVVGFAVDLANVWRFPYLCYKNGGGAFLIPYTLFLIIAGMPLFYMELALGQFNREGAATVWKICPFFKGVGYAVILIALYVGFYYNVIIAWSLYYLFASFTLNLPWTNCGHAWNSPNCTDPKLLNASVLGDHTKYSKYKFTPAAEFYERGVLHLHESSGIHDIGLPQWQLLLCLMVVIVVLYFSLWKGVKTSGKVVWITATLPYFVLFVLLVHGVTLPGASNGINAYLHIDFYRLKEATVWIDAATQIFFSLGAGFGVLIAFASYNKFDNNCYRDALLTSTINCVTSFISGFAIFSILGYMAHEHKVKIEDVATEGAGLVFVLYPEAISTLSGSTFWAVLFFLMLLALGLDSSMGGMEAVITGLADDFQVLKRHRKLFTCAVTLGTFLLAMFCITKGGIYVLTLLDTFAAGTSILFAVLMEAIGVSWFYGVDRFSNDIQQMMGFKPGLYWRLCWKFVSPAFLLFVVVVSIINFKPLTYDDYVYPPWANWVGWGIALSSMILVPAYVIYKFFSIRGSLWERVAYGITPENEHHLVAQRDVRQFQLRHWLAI
UniProt P28335, 33-458 limits assumed: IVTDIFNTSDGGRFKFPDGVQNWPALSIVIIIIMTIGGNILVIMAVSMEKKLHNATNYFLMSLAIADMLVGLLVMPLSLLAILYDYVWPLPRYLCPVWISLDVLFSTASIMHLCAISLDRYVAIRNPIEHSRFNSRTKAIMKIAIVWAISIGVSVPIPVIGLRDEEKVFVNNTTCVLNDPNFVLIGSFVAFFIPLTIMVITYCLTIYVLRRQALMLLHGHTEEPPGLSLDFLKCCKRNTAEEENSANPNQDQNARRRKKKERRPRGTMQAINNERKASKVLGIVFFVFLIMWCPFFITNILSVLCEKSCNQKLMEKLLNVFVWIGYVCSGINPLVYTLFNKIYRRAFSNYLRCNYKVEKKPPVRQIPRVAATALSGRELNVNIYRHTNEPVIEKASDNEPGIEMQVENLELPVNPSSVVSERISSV

Columns and labels:
[1] = biological target: human cloned 5-HT2A receptor, expressed in L929 cells (Homo sapiens, UniProt P28223); assay: In vitro binding affinity for 5-HT2A receptor ([125I]R91150 radioligand binding); conditions: human cloned 5-HT2A receptor in L929 cells
Procedure: In Vitro Binding Affinity for 5-HT2A and 5-HT2C Receptors
The interaction of the compounds of Formula (I) with 5-HT2A and 5-HT2C receptors was assessed in in vitro radioligand binding experiments. In general, a low concentration of a radioligand with a high binding affinity for the receptor is incubated with a sample of a tissue preparation enriched in a particular receptor (1 to 5 mg tissue) in a buffered medium (0.2 to 5 ml). During the incubation, the radioligands bind to the receptor. When equilibrium of binding is reached, the receptor bound radioactivity is separated from the non-bound radioactivity, and the receptor bound activity is counted. The interaction of the test compounds with the receptors is assessed in competition binding experiments. Various concentrations of the test compound are added to the incubation mixture containing the tissue preparation and the radioligand. Binding of the radioligand will be inhibited by the test compound in proportion to its binding affinity and its concentration. The affinities of the compounds for the 5-HT2 receptors were measured by means of radioligand binding studies conducted with: (a) human cloned 5-HT2A receptor, expressed in L929 cells using [^125I]R91150 as radioligand and (b) human cloned 5-HT2C receptor, expressed in CHO cells using [^3H]mesulergine as radioligand. […]

[2] = biological target: human Dopamine D2L receptor (Homo sapiens, UniProt P14416); assay: In vitro binding affinity for human D2L receptor ([3H]Spiperone binding); conditions: human D2L receptor-transfected CHO cell membranes
[3] = biological target: NET (norepinephrine transporter) (Rattus norvegicus, UniProt Q63380); assay: In vitro determination of NET reuptake inhibition ([3H]Nixosetine binding, rat brain cortex)
[4] = biological target: human cloned 5-HT2C receptor, expressed in CHO cells (Homo sapiens, UniProt P28335); assay: In vitro binding affinity for 5-HT2C receptor ([3H]mesulergine radioligand binding)

Structure (SMILES) | 5-HT2A pIC50 [1] | D2L pIC50 [2] | NET pIC50 [3] | 5-HT2C pIC50 [4] | 5-HT2A pIC50 ([1]; tested form: TFA) | D2L pIC50 ([2]; tested form: TFA) | NET pIC50 ([3]; tested form: TFA) | 5-HT2C pIC50 ([4]; tested form: TFA)
N#Cc1ccc2c(c1)Cc1ccc(F)cc1C1OC(CN3CCC(O)C3)CC21 (centres unmarked) | 7.60 | 6.76 | 5.16 | 7.65 |  |  |  | 
Fc1ccc(-c2ccc(CN3CCN(CC4CC5c6ccccc6Cc6ccc(F)cc6C5O4)CC3)o2)c(F)c1 (centres unmarked) |  |  |  |  | 7.15 | 6.97 | 5.75 | 6.83
